# From patent US9340577B2, “HLA binding motifs and peptides and their uses” (priority 1992, dated 2016)
# Target: A*3301 (Homo sapiens, UniProt P04439, A270S/D185E/E176V/E277Q/E87N/F33T/G231S/H175R/I121M/I218V/I322F/K168Q/K210R/L300P/L318F/M331R/P217A/Q86R/Q94H/R138Q/T323A/T345S/T97I/V358M/Y195H)
# Assay: biochemical
# Assay type: binding
row,SMILES,IC50
1,CC(C)C[C@H](NC(=O)[C@H](C)NC(=O)[C@H](C)NC(=O)[C@H](C)NC(=O)[C@@H](NC(=O)[C@@H](N)CO)[C@@H](C)O)C(=O)N[C@@H](Cc1ccc(O)cc1)C(=O)N[C@@H](Cc1c[nH]c2ccccc12)C(=O)N[C@@H](Cc1ccc(O)cc1)C(=O)N[C@@H](CCCCN)C(=O)O [Peptide 1587.06],138 nM
2,CC[C@H](C)[C@H](NC(=O)[C@H](Cc1c[nH]c2ccccc12)NC(=O)[C@H](CCC(N)=O)NC(=O)[C@H](CO)NC(=O)[C@H](CCSC)NC(=O)[C@H](CO)NC(=O)[C@H](CCSC)NC(=O)[C@H](CCC(N)=O)NC(=O)[C@@H](N)CCCCN)C(=O)N[C@@H](CCCCN)C(=O)O [Peptide 1587.09],11400 nM
3,CC[C@H](C)[C@H](NC(=O)[C@H](Cc1ccc(O)cc1)NC(=O)[C@@H](NC(=O)[C@@H](NC(=O)[C@@H](NC(=O)[C@@H](N)Cc1c[nH]c2ccccc12)[C@@H](C)O)[C@@H](C)CC)C(C)C)C(=O)N[C@@H](CCC(=O)O)C(=O)N[C@@H](Cc1ccc(O)cc1)C(=O)N[C@@H](CCCNC(=N)N)C(=O)N[C@@H](CCCCN)C(=O)O [Peptide 9017.0243],3510 nM

# Target: HLA-A1 (A*0101) (Homo sapiens, UniProt P04439, A114D/A174V/A182V/D101N/D185E/E176A/E190D/L180R/Q94H/R68K/S129P/T187R/V100A/V91M/W191G)
# Assay: biochemical
row,SMILES,IC50
1,CC(C)C[C@H](NC(=O)CNC(=O)[C@H](CCCNC(=N)N)NC(=O)[C@H](Cc1c[nH]cn1)NC(=O)[C@H](CO)NC(=O)[C@@H](NC(=O)[C@H](CS)NC(=O)[C@@H](NC(=O)[C@H](C)N)[C@@H](C)O)C(C)C)C(=O)N[C@@H](Cc1ccc(O)cc1)C(=O)O [Peptide 1580.22],421 nM
2,CC[C@H](C)[C@H](NC(=O)[C@H](CCCCN)NC(=O)[C@H](CC(=O)O)NC(=O)[C@@H](NC(=O)[C@@H](N)CC(C)C)[C@@H](C)O)C(=O)N[C@H](C(=O)N[C@@H](CC(=O)O)C(=O)N[C@@H](Cc1c[nH]cn1)C(=O)N[C@@H](Cc1ccc(O)cc1)C(=O)O)[C@@H](C)CC [Peptide 1593.09],195 nM
3,CC[C@H](C)[C@H](NC(=O)[C@H](CCC(N)=O)NC(=O)[C@H](CC(=O)O)NC(=O)[C@H](CO)NC(=O)[C@@H](N)CC(=O)O)C(=O)N[C@@H](CC(C)C)C(=O)N[C@H](C(=O)NCC(=O)N[C@@H](Cc1ccc(O)cc1)C(=O)O)C(C)C [Peptide 1593.12],183 nM

# Target: HLA-A3.2 (A*0301) (Homo sapiens, UniProt P04439)
# Assay: biochemical
# Assay type: binding
row,SMILES,IC50
1,CC(C)[C@H](NC(=O)[C@H](CCC(=O)O)NC(=O)[C@@H](NC(=O)[C@@H](N)CCCNC(=N)N)[C@@H](C)O)C(=O)N[C@@H](Cc1ccc(O)cc1)C(=O)N[C@@H](CCC(N)=O)C(=O)N[C@@H](Cc1ccccc1)C(=O)N[C@@H](C)C(=O)N[C@@H](Cc1ccccc1)C(=O)N[C@@H](CCCCN)C(=O)O [Peptide 78.0062],285 nM
2,CC[C@H](C)[C@H](NC(=O)CNC(=O)[C@H](CCCCN)NC(=O)[C@H](CS)NC(=O)[C@H](CC(N)=O)NC(=O)[C@@H](NC(=O)[C@H](CCC(N)=O)NC(=O)CN)C(C)C)C(=O)N[C@@H](Cc1ccc(O)cc1)C(=O)N[C@@H](Cc1ccc(O)cc1)C(=O)O [Peptide 88.0209],1020 nM
3,CSCC[C@H](NC(=O)[C@H](CCC(N)=O)NC(=O)[C@H](CCC(N)=O)NC(=O)[C@@H](N)CCC(N)=O)C(=O)N[C@@H](Cc1ccccc1)C(=O)N[C@@H](CC(C)C)C(=O)NCC(=O)N[C@H](C(=O)N[C@H](C(=O)N[C@@H](CCCCN)C(=O)O)C(C)C)[C@@H](C)O [Peptide 88.0219],1020 nM
4,CC(C)C[C@H](N)C(=O)N[C@@H](CCC(N)=O)C(=O)N[C@@H](Cc1c[nH]cn1)C(=O)N[C@@H](C)C(=O)N[C@@H](CO)C(=O)N[C@H](C(=O)N[C@@H](CO)C(=O)N[C@H](C(=O)N1CCC[C@H]1C(=O)N[C@@H](CCCCN)C(=O)O)[C@@H](C)O)[C@@H](C)O [Peptide 88.0224],19 nM
5,CC[C@H](C)[C@H](NC(=O)[C@H](CCC(N)=O)NC(=O)[C@@H](N)CCCCN)C(=O)N[C@H](C(=O)N[C@@H](CCSC)C(=O)N[C@@H](Cc1ccccc1)C(=O)N[C@@H](CC(C)C)C(=O)N[C@@H](CCCNC(=N)N)C(=O)N[C@@H](Cc1ccc(O)cc1)C(=O)O)C(C)C [Peptide 88.0330],138 nM
6,CSCC[C@H](NC(=O)[C@@H](NC(=O)[C@@H](N)CC(N)=O)[C@@H](C)O)C(=O)N[C@@H](Cc1c[nH]cn1)C(=O)N[C@@H](Cc1ccc(O)cc1)C(=O)N[C@H](C(=O)N[C@@H](CC(N)=O)C(=O)N[C@@H](Cc1c[nH]c2ccccc12)C(=O)N[C@@H](CCCCN)C(=O)O)[C@@H](C)O [Peptide 1589.16],1020 nM
7,CC[C@H](C)[C@H](N)C(=O)N[C@H](C(=O)N[C@H](C(=O)N[C@@H](CCCCN)C(=O)N[C@@H](CCCNC(=N)N)C(=O)N[C@@H](CCCNC(=N)N)C(=O)N[C@@H](CCC(N)=O)C(=O)N[C@@H](CCC(N)=O)C(=O)N[C@@H](CCCCN)C(=O)O)[C@@H](C)CC)C(C)C [Peptide 9012.0206],198 nM
8,CC[C@H](C)[C@H](NC(=O)CNC(=O)[C@H](Cc1ccccc1)NC(=O)[C@@H](NC(=O)[C@H](CC(C)C)NC(=O)CN)C(C)C)C(=O)N[C@@H](CC(C)C)C(=O)N[C@H](C(=O)N[C@@H](CCCCN)C(=O)N[C@@H](CCCNC(=N)N)C(=O)O)[C@@H](C)CC [Peptide 9012.0244],3510 nM
9,CC[C@H](C)[C@H](NC(=O)[C@H](CC(C)C)NC(=O)[C@H](Cc1c[nH]c2ccccc12)NC(=O)[C@H](CC(=O)O)NC(=O)[C@@H](NC(=O)[C@H](CCCCN)NC(=O)[C@H](CCCNC(=N)N)NC(=O)[C@H](CCC(N)=O)NC(=O)[C@@H](N)CCCNC(=N)N)[C@@H](C)CC)C(=O)N[C@@H](CCCCN)C(=O)O [Peptide 9017.0247],198 nM

# Target: HLA-A11 (A*1101) (Homo sapiens, UniProt P04439, A114D/D185E/E176A/F33Y/L180Q/S129P/T187R)
# Assay: biochemical
# Assay type: binding
row,SMILES,IC50
1,CC(C)C[C@H](NC(=O)[C@H](CC(C)C)NC(=O)[C@H](Cc1c[nH]cn1)NC(=O)[C@H](CC(C)C)NC(=O)[C@@H](NC(=O)[C@H](CCC(N)=O)NC(=O)[C@H](C)N)C(C)C)C(=O)N[C@@H](CCCCN)C(=O)N[C@@H](CCCNC(=N)N)C(=O)O [Peptide 88.0364],285 nM
2,C[C@H](NC(=O)[C@H](CC(N)=O)NC(=O)[C@@H](NC(=O)[C@@H](N)CC(N)=O)[C@@H](C)O)C(=O)NCC(=O)N[C@H](C(=O)N[C@@H](CC(=O)O)C(=O)N1CCC[C@H]1C(=O)N[C@@H](CCCNC(=N)N)C(=O)O)[C@@H](C)O [Peptide 88.0372],1020 nM
3,CSCC[C@H](NC(=O)CNC(=O)CNC(=O)[C@H](CCSC)NC(=O)[C@H](CS)NC(=O)[C@@H](NC(=O)[C@@H](N)CO)C(C)C)C(=O)N[C@@H](CC(N)=O)C(=O)N[C@@H](CCCNC(=N)N)C(=O)O [Peptide 1556.60],17 nM
4,CC[C@H](C)[C@H](NC(=O)[C@H](CCC(N)=O)NC(=O)[C@@H](NC(=O)[C@H](C)NC(=O)[C@H](CO)NC(=O)[C@@H](NC(=O)[C@@H](N)[C@@H](C)O)C(C)C)[C@@H](C)O)C(=O)N[C@H](C(=O)N[C@@H](CCCNC(=N)N)C(=O)O)C(C)C [Peptide 1589.26],183 nM
5,CC[C@H](C)[C@H](NC(=O)[C@H](CC(C)C)NC(=O)[C@H](C)NC(=O)[C@@H](NC(=O)[C@H](CC(C)C)NC(=O)[C@H](C)NC(=O)[C@H](CC(C)C)NC(=O)[C@@H](N)Cc1ccc(O)cc1)[C@@H](C)O)C(=O)N[C@@H](CCCCN)C(=O)O [Peptide 9017.0097],3040 nM
6,CC[C@H](C)[C@H](NC(=O)[C@H](Cc1ccc(O)cc1)NC(=O)[C@@H](NC(=O)[C@@H](NC(=O)[C@@H](NC(=O)[C@@H](N)Cc1c[nH]c2ccccc12)[C@@H](C)O)[C@@H](C)CC)C(C)C)C(=O)N[C@@H](CCC(=O)O)C(=O)N[C@@H](Cc1ccc(O)cc1)C(=O)N[C@@H](CCCNC(=N)N)C(=O)O [Peptide 9017.0117],1510 nM
7,CSCC[C@H](NC(=O)[C@H](Cc1c[nH]cn1)NC(=O)[C@H](Cc1c[nH]cn1)NC(=O)[C@H](CCCCN)NC(=O)[C@@H](NC(=O)[C@@H](N)CC(C)C)C(C)C)C(=O)N[C@@H](Cc1ccc(O)cc1)C(=O)N[C@H](C(=O)N[C@@H](CO)C(=O)N[C@@H](CCCCN)C(=O)O)C(C)C [Peptide 9017.0216],184 nM

# Target: A*6801 (Homo sapiens, UniProt P04439, A269V/D185E/E176V/E277Q/E87N/F33Y/G231S/I121M/I166T/I218V/L180W/L300P/L318F/N151K/P208A/P217A/Q86R/R169H/T345S)
# Assay: biochemical
# Assay type: binding
row,SMILES,IC50
1,CC[C@H](C)[C@H](N)C(=O)N[C@H](C(=O)N[C@@H](Cc1ccc(O)cc1)C(=O)N[C@@H](CCCNC(=N)N)C(=O)N[C@@H](CC(=O)O)C(=O)N[C@@H](CC(N)=O)C(=O)N[C@@H](CC(N)=O)C(=O)N1CCC[C@H]1C(=O)N[C@@H](Cc1ccc(O)cc1)C(=O)O)C(C)C [Peptide 78.0292],33 nM
2,CC(C)C[C@H](NC(=O)[C@H](C)NC(=O)CNC(=O)[C@H](CC(C)C)NC(=O)[C@@H](N)Cc1ccccc1)C(=O)N[C@@H](CCCCN)C(=O)N[C@@H](CO)C(=O)N[C@@H](Cc1ccccc1)C(=O)N[C@@H](CC(C)C)C(=O)N[C@@H](CCCCN)C(=O)O [Peptide 88.0148],1390 nM
3,CC[C@H](C)[C@H](NC(=O)[C@H](CS)NC(=O)[C@H](CCCNC(=N)N)NC(=O)[C@@H](NC(=O)[C@@H](N)CC(C)C)[C@@H](C)CC)C(=O)N[C@H](C(=O)N[C@@H](CS)C(=O)N[C@@H](CCC(N)=O)C(=O)N[C@@H](CCCCN)C(=O)O)[C@@H](C)CC [Peptide 88.0298],285 nM
4,CC(C)[C@H](NC(=O)CNC(=O)[C@H](CO)NC(=O)[C@H](CS)NC(=O)[C@@H](NC(=O)[C@@H](N)CCCCN)C(C)C)C(=O)N[C@@H](CC(=O)O)C(=O)N[C@@H](Cc1ccc(O)cc1)C(=O)N[C@@H](CCCNC(=N)N)C(=O)O [Peptide 1589.35],13600 nM
5,CC[C@H](C)[C@H](NC(=O)[C@H](CCC(=O)O)NC(=O)[C@@H](NC(=O)[C@H](CC(C)C)NC(=O)[C@H](CO)NC(=O)[C@H](CCCNC(=N)N)NC(=O)[C@@H](NC(=O)[C@@H](N)CCC(N)=O)[C@@H](C)O)[C@@H](C)O)C(=O)N[C@@H](CC(C)C)C(=O)N[C@@H](CCCCN)C(=O)O [Peptide 9012.0217],297 nM
6,CC[C@H](C)[C@H](NC(=O)CNC(=O)[C@H](Cc1ccccc1)NC(=O)[C@@H](NC(=O)[C@H](CC(C)C)NC(=O)CN)C(C)C)C(=O)N[C@@H](CC(C)C)C(=O)N[C@H](C(=O)N[C@@H](CCCCN)C(=O)N[C@@H](CCCNC(=N)N)C(=O)O)[C@@H](C)CC [Peptide 9012.0244],183 nM
